Measured values published in patent US6586425B2, “Cytoskeletal active agents for glaucoma therapy” (Wisconsin Alumni Research Foundation, priority 1996, dated 2003).

Tested on: living monkey eye
Settings: living monkeys

With “1-(5-iodonaphthalene-1-sulfonyl)-1H-Hexahydro-1,4-diazepine” as the substance, how does the “effect on outflow facility” value read?
Its value is “increases outflow facility”.
